Test results: US9498495B2, “Methods for in vitro differentiation of TH-17+ cells” (New York University, priority 2008, dated 2016)

Tests used:
[1] = test system: Cord blood CD4+ T cells transduced with RORγT; assay: IL-17 and FOXP3 expression following RORγT transduction of cord blood CD4+ T cells (intracellular staining); assay type: cell-based, human
[2] = test system: Naive cord blood CD4+ T cells; assay: Th17 cell polarization of naive cord blood CD4+ T cells in serum-free media (intracellular and surface staining: IL-17, IL-22, FOXP3, CCR6); assay type: cell-based, human
Experimental: Blood samples were obtained from the New York Blood Center. Mononuclear cells were prepared from buffy coats of healthy adult donors or from cord blood on FicollPAQUE gradients. CD4^+ T cells were isolated on an autoMACS Pro using Miltenyi bead depletion of CD14^+ and CD25^+ cells followed by positive selection of CD4^+ cells. Cord blood CD4^+ T cells were >97% pure and 100% CD45RA^+ and were used as such for initial transduction experiments. Adult CD4^+ T cell subsets and naive cord blood CD4^+ T cells were further purified respectively as CD3^+CD4^+CD25^−CD45RO^−/+ and CD3^+CD4^+CD25^−HLA-DR^−CD45RA^+ by cell sorting on a FACSAria.
Cells were cultivated in either RPMI1640 (Invitrogen) supplemented with 10% fetal bovine serum (Hyclone), penicillin-streptomycin, 2 mM glutamine, 10 mM HEPES, 1 mM pyruvate and 0.1 mM non-essential amino acids or serum-free XVIVO-20 (Lonza) supplemented with penicillin-streptomycin in a 37° C. 5% CO2 incubator. CD4^+ T cells were stimulated by addition of anti-mouse IgG magnetic beads (Pierce) previously coated with purified anti-CD3 and anti-CD28 at final concentrations of 1 bead/cell and 1 μg/ml of each antibody. For transduction experiments, cells were seeded at a concentration of 10^6 cells/ml in 24 well plates with anti-CD3/CD28 coated beads, 10 μg/ml polybrene and 10 U/ml IL-2 at day 0. Lentiviral supernatants were added at an MOI ranging from 1 to 10. Cells were washed at day 1 and split as needed in the presence of IL-2. For the shRNA experiment, puromycin was added at day 2 at 2 μg/ml. For polarization experiments, cells were seeded at a concentration of 5×10^5 to 10^6 cells/ml in U-bottom 96 well plates with anti-CD3/CD28 coated beads. IL-2 at 10 U/ml was either added at day 0 or day 3. Media was replaced at day 3 and cells were split in the presence of IL-2. For long-term experiments, cells were split as needed. In some cases, 10 ng/ml IL-1β (eBioscience), 10 ng/ml IL-6 (eBioscience), 10 ng/ml IL-21 (Cell Sciences), 10 ng/ml IL-23 (eBioscience), various concentrations of TGF-β1 (PeproTech), neutralizing soluble IL-21R (R&D) and neutralizing antibodies against IL-2, IL-4, IL-6, IFNγ or TGF-β (1 μg/ml except noted otherwise; see Table 1 for details) were added at day 0 and maintained throughout the experiment. Cells were harvested at day 6 for intracellular staining and real-time PCR analysis except where specified otherwise.
For intracellular cytokine staining, cells were incubated for 5 hours with 50 ng/ml PMA (Sigma), 500 ng/ml Ionomycin (Sigma), and GolgiStop (BD). Surface staining was performed by incubation with the corresponding fluorescently labeled antibodies for 15 min on ice. […] Flow cytometric measures were performed on a LSR II (BD Biosciences) instrument and analyzed using FlowJo software (Tree Star Inc.). […]

Substance | effect on the suppression of IL-17 production induced by TGF-β ([1]; RORγT-transduced cells, with TGF-β) | increase of the proportion of IL-17-producing cells after forced expression of RORγT ([1]; cytokine 10 ng/ml, day 6) | suppression of TGF-β-induced FOXP3 expression ([2]; added to TGF-β, day 6) | induction of IL-17 ([2]; both IL-1β and TGF-β included, day 6) | induction of IL-17 ([2]; combined with TGF-β alone) | IL-17 expression ([2]; in the presence of TGF-β, IL-1β and IL-23, day 6)
IL-21: cytokine, 10 ng/ml IL-21 (Cell Sciences) | partially relieved | about two-fold | able to inhibit | active, albeit not as strongly as IL-23 | failed to induce | –
IL-2: cytokine, IL-2 at 10 U/ml | – | – | – | – | – | increased
